## Ab-14 heavy chain CDR variants: yeast mating affinities

The target is the same throughout: PDVDLGDISGINAS, from the HR2 region of SARS-CoV-2 spike.

Each scFv is VH, a 15-residue (Gly4Ser)3 linker, VL, as in the parent Ab-14, and differs from it in the CDRs of the heavy chain only.
VH: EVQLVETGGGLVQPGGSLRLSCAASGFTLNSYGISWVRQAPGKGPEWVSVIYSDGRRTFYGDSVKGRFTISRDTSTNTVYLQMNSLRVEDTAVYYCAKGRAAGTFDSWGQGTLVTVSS
VL: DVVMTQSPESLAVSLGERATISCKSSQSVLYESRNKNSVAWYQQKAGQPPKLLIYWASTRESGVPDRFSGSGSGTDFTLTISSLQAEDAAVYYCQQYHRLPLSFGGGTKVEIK

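The starting antibody came from a phage panning campaign against this peptide. Variants in AAYL49 differ from the parent at up to three CDR positions; double and triple changes were sampled at random. AlphaSeq pools MATa yeast showing the antibodies with MATalpha yeast showing the peptide. After mating in shaken culture at 30 °C for 16 h, diploids were selected and their barcode pairs sequenced. Scores were corrected for input abundance and mapped to Kd with protein pairs of known affinity run in the same pool. The assay was run in three technical replicates.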

The parent's heavy chain CDRs are GFTLNSYGIS, VIYSDGRRTFYGDSVK, GRAAGTFDS; each variant's own CDRs replace them letter for letter. All variants listed here change S53 of the VH, counted from its first residue. Values are log10 of the apparent Kd in nM; lower means stronger binding. Averages over replicates are reported, and they cover detected replicates only. "no signal" marks a missing value. The strain was present, yet no cells mated with the target were sequenced in any replicate, which points to weak or no binding. For reference, the parent read 0.65 as the reference entry and 4.11 (one replicate of three) as a member of this library.

| CDR-H1 | CDR-H2 | CDR-H3 | mean, log10 nM | seen in |
|---|---|---|---|---|
| GFTLNYYGIS | VIYWDGRRTFYGDDVK | GRAAGTFDS | no signal | 0 of 3 |
| GFTLNSYGIS | VIYQDGRRTFYGDSVK | GRAAGTFSS | no signal | 0 of 3 |
| GFTLNSYGIS | YIYPDGRRTFYGDSVK | GRAAGTHDS | 3.57 | 2 of 3 |
| GFTLNSYGIS | VIYWDGRRTFPGDSVK | GRAAGTDDS | no signal | 0 of 3 |
| GFTLNSYGIS | VIYWDGRRTFYGDSVK | GRAYGTYDS | 3.46 | 3 of 3 |
| GFSLLSYGIS | VIYADGRRTFYGDSVK | GRAAGTFDS | 0.03 | 3 of 3 |
| GFTLNSYGIS | VIYWDGRRTFYGDSVK | GRAAGTFDQ | 1.73 | 3 of 3 |
| GFTLNSYGIS | VIYGDGRRTFYGFSVK | GRAAGHFDS | no signal | 0 of 3 |
| GFTLNSYGIS | QIYEDGRRTFYGDSVK | GRAAGTFDR | no signal | 0 of 3 |
| GFTLNSYGIS | VIYEDGRRTFEGDSVK | GRAAGQFDS | 4.20 | 1 of 3 |
| GFTLKSYGIS | VIYGDGRRTFYIDSVK | GRAAGTFDS | 1.52 | 3 of 3 |
| GFTLNSYGIS | VIYDDGRRTFYGDSVK | GRAAGHLDS | 5.61 | 1 of 3 |
| GFTLNSYGIR | VIYWDGRRTFYGDSVK | GRWAGTFDS | no signal | 0 of 3 |
| GFTLNSYGIS | EIYTDGRRTFDGDSVK | GRAAGTFDS | no signal | 0 of 3 |
| GFTLNKYGIS | VICWDGRRTFYGDSVK | GRAAGTFDS | no signal | 0 of 3 |
| GFCLNSYGIS | VIYDDGRRTFYGMSVK | GRAAGTFDS | 3.86 | 2 of 3 |
| GFTLNSYGIS | VIYNDGDRTFYGDSVK | GRAAGTFDS | 4.85 | 1 of 3 |
| GFTLNSYGIS | VIYYDGRRDFYGDSVK | GRAAGTFAS | 3.99 | 2 of 3 |
| GFTLNSYGIS | VIYEDGRRTFYGDSVK | GRAVGTFDT | 3.61 | 2 of 3 |
| GFTLNSYGIS | VIEADGRRTFYLDSVK | GRAAGTFDS | 3.93 | 2 of 3 |
| GFTTNSYGIS | VIYKDGRRTFYGDSVK | GRAAGTFDS | 3.96 | 2 of 3 |
| GFTLNSYGID | VIYYDGRRTFYGDSVK | GRAAATFDS | 4.71 | 2 of 3 |
| GFTLNSYGIR | VIDPDGRRTFYGDSVK | GRAAGTFDS | no signal | 0 of 3 |
| GFTLNSGGIS | VIYPDGRRTFYGDQVK | GRAAGTFDS | 3.24 | 1 of 3 |
| GFTLGSYDIS | VIYYDGRRTFYGDSVK | GRAAGTFDS | no signal | 0 of 3 |
| GFTLDSNGIS | VIYEDGRRTFYGDSVK | GRAAGTFDS | 2.81 | 3 of 3 |
| GFTLNSYGIS | VIYADGRRTFYGDSVK | GRAYGTFDS | 5.35 | 3 of 3 |
| GFTLNSYGIS | VIYQDGRRTFYGDSVQ | GRPAGTFDS | 3.81 | 2 of 3 |
| GFTLNSSGIS | QIYWDGRRTFYGDSVK | GRAAGTFDS | 4.66 | 2 of 3 |
| GFTLNSYGIS | VIYADGRRTFYGDKVK | GRAAGTFDS | 1.27 | 3 of 3 |
| GFTLNSYGIS | VIYVDGRRTFYGDSVK | GRAAGTFDS | 2.08 | 3 of 3 |
| GFTLNSYGIS | VIYFDGRRTFYGDHLK | GRAAGTFDS | 5.34 | 3 of 3 |
| GFTLNSYGIS | VIYFDGERTFYGDSVK | GRAAGTMDS | 4.58 | 1 of 3 |
| GFRLNSYGIS | VIYYDGRRTFYGDSVF | GRAAGTFDS | 2.98 | 1 of 3 |
| GFTLNSIGIH | VIYADGRRTFYGDSVK | GRAAGTFDS | 1.40 | 3 of 3 |
| GFTLNSYGIS | VIYEDGRNTFYGDSVP | GRAAGTFDS | no signal | 0 of 3 |
| GFTLNSYGIS | VIYGDGRRTFYGDSVT | GRAAGTFDS | 4.29 | 1 of 3 |
| GFTHNSYGIS | VIYQDGRRTFYADSVK | GRAAGTFDS | 3.33 | 1 of 3 |
| GFTLNSYGIS | VIYHDGRRTFYGDSVK | GRAAGTFDS | 1.12 | 3 of 3 |
| GFTLNSYGIS | LIYKDGRRTFYGDSVK | GRADGTFDS | 4.21 | 1 of 3 |
| GFTLNSYGIS | VIYHDGRRTFFGDSVK | GRAAGTNDS | no signal | 0 of 3 |
| GFTLWSYGIS | VIYHDGRRTFYGVSVK | GRAAGTFDS | no signal | 0 of 3 |
| GFTLNSYGIS | VIYYDGRRTFYGDSVK | GRAAGTFDS | 1.87 | 3 of 3 |
| GFTLNSYFIS | VIYHDGRRTFYGDSVK | GRAAGEFDS | 2.52 | 3 of 3 |
| GFTLNSWGIS | VIYFDGRRTFYGDSVK | GRAAGTFES | no signal | 0 of 3 |
| GFTLNSYGIS | VIYKDGRRTFYGDSVK | GRAAGTFDS | 4.30 | 1 of 3 |
| GFTLNSYGIS | VIYEDGRRTFYGDSVK | GRAAGTFDS | 6.22 | 1 of 3 |
| GFTLNSYGIS | VIYCDGRQTFYGDSVK | GRAAPTFDS | 4.04 | 1 of 3 |
| GFTLNSYGCS | VIYQDGRRTFYGDSVK | GRAHGTFDS | no signal | 0 of 3 |
| GFTLNSYGES | VIYLDGRRTFYGDSVK | GRAAGTFDY | no signal | 0 of 3 |
| GFTLNSYGIS | VIYEDGRRTFYGDSVK | RRAADTFDS | 4.48 | 2 of 3 |
| GFTLNSYGIP | VIYPDGRRTFYTDSVK | GRAAGTFDS | no signal | 0 of 3 |
| GFTLNSYGIS | EIYPDGRRTFYGDSVP | GRAAGTFDS | 4.65 | 1 of 3 |
| GFTLNSYGIS | VIYIDGRRTFYGDSVK | GRAAGKFDW | no signal | 0 of 3 |
| GFTLNSYGIS | VIYPDGFRTFYGDSVK | GRAAVTFDS | 2.42 | 3 of 3 |
| GFTLNSYGIS | VIYMHGRDTFYGDSVK | GRAAGTFDS | 4.97 | 1 of 3 |
| GFTGESYGIS | VIYCDGRRTFYGDSVK | GRAAGTFDS | 3.01 | 1 of 3 |
| GFTLYSYGIS | VIYPDGRRTFYGDSTK | GRAAGTFDS | no signal | 0 of 3 |
| GFTLNRYGIS | VIYGDGRRTFYGDSVK | GRAAGTFDC | 5.43 | 3 of 3 |
| GATPNSYGIS | VIYMDGRRTFYGDSVK | GRAAGTFDS | no signal | 0 of 3 |
| GCTLNSYGIS | VIYMDGRRTFYGDSVK | GRAAGPFDS | no signal | 0 of 3 |
| GFTLNSYGIS | VIYDDGRRTFYGDFDK | GRAAGTFDS | 5.65 | 1 of 3 |
| GFTLNSYGIS | VIYLDGRRTFYGDSVV | GRAAGTFDR | no signal | 0 of 3 |
| GFTLNSYGIS | VIYQDGRYTFYGDSVK | GSAAGTFDS | no signal | 0 of 3 |
| GFTLNSYGIS | VIYQDGRPTFYGASVK | GRAAGTFDS | 4.80 | 2 of 3 |
| GFTLNSYGIS | VIYEDGRATFYGDSCK | GRAAGTFDS | no signal | 0 of 3 |
| IFTLNSYGIS | VIYMDGRRTFYGDSVK | GRAAKTFDS | 4.90 | 2 of 3 |
| GFTLNAYGIS | VIYTQGRRTFYGDSVK | GRAAGTFDS | no signal | 0 of 3 |
| GFTLNSYGIS | VIYLDGRRTFYGDSVK | IHAAGTFDS | 3.33 | 1 of 3 |
| GFTLNSYGIS | VIYHDGRRTFYGDRVK | GRAAGTFDS | 2.84 | 3 of 3 |
| RFTINSYGIS | VIYLDGRRTFYGDSVK | GRAAGTFDS | 4.52 | 1 of 3 |
| GFKLNWYGIS | VIYLDGRRTFYGDSVK | GRAAGTFDS | 3.56 | 1 of 3 |
| GFTLNSYGIS | VIPCDGRRTFYGDSVK | GRSAGTFDS | no signal | 0 of 3 |
| GFTLNSYGIS | PIYHDGRRTFYGDSVK | GRAAGTFDS | no signal | 0 of 3 |

A selection of 12 entries from above:

CDR-H1,CDR-H2,CDR-H3,"mean, log10 nM",seen in
GATPNSYGIS,VIYMDGRRTFYGDSVK,GRAAGTFDS,no signal,0 of 3
GFTLNSYGIP,VIYPDGRRTFYTDSVK,GRAAGTFDS,no signal,0 of 3
GFTLNSYGID,VIYYDGRRTFYGDSVK,GRAAATFDS,4.71,2 of 3
GFTLNSYGIS,VIYWDGRRTFYGDSVK,GRAAGTFDQ,1.73,3 of 3
GFTLNSYGIS,VIYADGRRTFYGDSVK,GRAYGTFDS,5.35,3 of 3
GFTLNSYGIS,VIYLDGRRTFYGDSVK,IHAAGTFDS,3.33,1 of 3
GFTLNSYGIS,VIYLDGRRTFYGDSVV,GRAAGTFDR,no signal,0 of 3
GFTLKSYGIS,VIYGDGRRTFYIDSVK,GRAAGTFDS,1.52,3 of 3
GFTLNKYGIS,VICWDGRRTFYGDSVK,GRAAGTFDS,no signal,0 of 3
GFCLNSYGIS,VIYDDGRRTFYGMSVK,GRAAGTFDS,3.86,2 of 3
GFTLNSYGIS,EIYTDGRRTFDGDSVK,GRAAGTFDS,no signal,0 of 3
GFTLNSYGIS,VIYEDGRNTFYGDSVP,GRAAGTFDS,no signal,0 of 3

Background: pairings of library AAYL49 with three empty control strains gave a value in 15% of cases (median 4.06, 5th percentile 2.83). Values in that range, when seen in few replicates, are hard to tell from nonspecific mating.

Data: MIT Lincoln Laboratory AlphaSeq set, Engelhart et al. 2022, doi:10.1038/s41597-022-01779-4, as distributed in FLAb.